Data published in publication PMC12501029, “Discovery of a CNS active GSK3 degrader using orthogonally reactive linker screening” (Nature Communications, 2025).

Assays:
[1] = Intrinsic clearance (Cli), mouse liver microsomes; conditions: 0.5 µM, scaling factor 48 mg microsomal protein per g liver
Procedure: (§1) Test compound (0.5 µM) was incubated with female CD1 mouse, male rat Han Wistar and pooled human liver microsomes (Xenotech^TM; 0.5 mg/mL 50 mM potassium phosphate buffer, pH7.4) and the reaction started with addition of excess NADPH (8 mg/mL 50 mM potassium phosphate buffer, pH7.4). Immediately, at time zero, then at 3, 6, 9, 15 and 30 min an aliquot (50 µL) of the incubation mixture was removed and mixed with acetonitrile (100 uL) to stop the reaction. An internal standard was added to all samples, the samples centrifuged to sediment precipitated protein and the plates then sealed prior to UPLC-MSMS analysis (Xevo TQ-S Micro, Waters^TM). XLfit (IDBS, UK) was used to calculate the exponential decay and consequently the rate constant (k) from the ratio of peak area of test compound to internal standard at each timepoint. The rate of intrinsic clearance (CLi) of each test compound was then calculated using the following calculation:1 CLi(mL/min/gliver)=kxVxMicrosomalproteinyield Where V (mL/mg protein) is the incubation volume/mg protein added and microsomal protein yield is taken as 48 mg, 46 mg and 40 mg protein/g liver for mouse, rat and human, respectively. Verapamil (0.5 µM) was used as a positive control to confirm acceptable assay performance.

[2] = Intrinsic clearance (Cli), rat liver microsomes; conditions: 0.5 µM, scaling factor 46 mg microsomal protein per g liver
Procedure: as §1

[3] = Intrinsic clearance (Cli), human liver microsomes; conditions: 0.5 µM, scaling factor 40 mg microsomal protein per g liver
Procedure: as §1

[4] = RealSOL kinetic solubility; conditions: PBS pH 7.4, 24 h, 25 °C
Procedure: Solubility was assessed using an 'in-house' developed method known as 'RealSOL'. This solubility method measures the solubility in physiological strength phosphate buffered saline starting from 10 mM DMSO solutions of the test compounds. Although a 'kinetic'^[1] solubility method, the long shaking times appears to give solubility values that reflect more closely those made from solid samples when compared to a previous nephelometric method (unpublished in-house data).
Test compounds were dissolved in DMSO to give 10 mM solutions. Solubility test samples were prepared by adding a volume (5 µL) of the 10 mM solution to a volume (195 µL) of phosphate buffered saline, pH 7.4 (Sigma-Aldrich, Cat no. P4417, made as per manufacturer’s instructions). This solution was then mixed for 24 h (rotary mixing, 900 rpm, 25 °C) excluding light.
After mixing, the solubility test samples were filtered to remove any undissolved material using a proprietary filter (Millipore Multiscreen HTS filter, 96-well format). Samples were drawn through the filter using a vacuum.
The filtrate from the above was analysed for dissolved drug compound using a truncated UHPLC methodology. A Shimadzu Nexera X2 UHPLC system was used, with a reversed-phase column and a simple formic acid gradient elution. The UHPLC parameters are shown in Supporting Information Table 5. […]

[5] = Brain binding, equilibrium dialysis; conditions: 10 μg/mL, 5 h dialysis
Procedure: As for plasma protein binding experiments, 96-well equilibrium dialysis apparatus was used to determine the free fraction in brain tissue homogenate for each compound (HT Dialysis LLC, Gales Ferry, CT). Membranes (12–14 kDA cut-off) were conditioned in deionised water for 60 min, followed by conditioning in 80:20 deionised water: ethanol for 20 min, and then rinsed in isotonic buffer before use. Frozen brain tissue was thawed and homogenised in artificial CSF at a ratio of 3:1. Homogenate was then spiked with test compound (final concentration 10 μg/mL), and 150 μL aliquots (n = 6 replicate determinations) loaded into the 96-well equilibrium dialysis plate. Dialysis vs artificial CSF was carried out for 5 h in a temperature-controlled incubator at ca. 37 °C (Barworld Scientific Ltd, UK) using an orbital microplate shaker at 100 revolutions/minute (Barworld Scientific Ltd, UK). […] All samples were analysed by UPLC-MS/MS. The unbound fraction was determined as the ratio of the peak area in buffer to that in homogenate using the following equation:2 Afu=Buffer/Matrix where Afu means apparent fraction unbound […]
The recovery of the dialysed samples was calculated by comparing the sum of the peak areas (buffer and matrix) of any test compound at 37 °C to that of the same compound at 4 °C. […]

[6] = Cassette PK study with 22, 25 and 26; conditions: i.v. bolus cassette 0.5 mg/kg
From the text: Fifteen female mice of the Balb/c strain were obtained from Charles River Laboratories, UK. Animals were maintained under a 12-h light/12-h dark cycle, in Thoren mouse caging containing EC0 aspen bedding (DBM, UK), with 'Sizzlenest' and 'Rodent Rolls' nesting material (DBM). Enrichment materials included aspen chew sticks, cardboard houses, tunnels, swings, and sunflower seeds. All animals had ad libitum access to food (5LF2 Extruded Diet, IPS Ltd, UK) and tap water throughout. Temperature and relative humidity were maintained between 19 °C–24 °C and 45%–65%, respectively. All animals received a minimum of 10 days of acclimatisation prior to the start of the study.
The cassette formulation (22, 25 and 26) was prepared by producing separate stock solutions of each compound dissolved in DMSO (dimethyl sulfoxide) at a concentration of 6 mg/mL. Aliquots of each stock solution were combined in equal parts to produce a stock solution containing 2 mg/mL of each compound. This solution was then diluted with Polyethylene glycol 400 (PEG400), followed by drop-wise addition of sterile water. The final formulation consisted of 5% DMSO, 40% PEG400, and 55% water, and contained 0.1 mg/mL of each compound. For the cassette PK study, three female Balb/c mice were dosed via a bolus intravenous injection at a dose level of 0.5 mg/kg per compound (5 mL/kg). Serial blood samples (10 µL per sample) were collected from the lateral tail vein of each mouse at 5, 15 and 30 min, 1, 2, 4, 6, 8, and 24 h after dose administration. All blood samples were diluted into 90 µL of Milli‑Q ultrapure water and stored at −20 °C prior to bioanalysis. The concentration of 22, 25 and 26 in blood and brain was determined by UPLC-MS/MS. […]
For study samples, a volume (30 µL) was mixed (vortexed) with a volume (90 µL) of acetonitrile to precipitate proteins. […] Supernatant from study samples (80 µL) and calibration samples, QCs, blanks, and double blanks (200 µL) were then transferred to HPLC glass vials containing Milli-Q water (40 µL or 100 µL, respectively), ready for LCMS analysis.

For Cn1nc(N2CCC(=O)NC2=O)c2ccc(CN3CCN(CCCCCc4cn(-c5ccc(-c6cn7nccc(C(=O)Nc8cnccc8N8CCOCC8)c7n6)cc5)nn4)CC3)cc21, the “Scaled Microsomal Stability MuClint” value [1] was 17 ml/min/g liver, the “Scaled Microsomal Stability RatClint” value [2] was 2.4 ml/min/g liver and the “Scaled Microsomal Stability HuClint” value [3] was 6.4 ml/min/g liver. The RealSol [4] was < 1 µM, the Brain Tissue Binding (Fu) [5] was 0.0076 and the Half_Life [6] was 1.0 h. For the same molecule, the Vss_obs [6] was 1.1 L/kg and the AUC0-last ([6]; whole blood) was 18499 ng·min/mL.
